Results taken from patent US11292791B2 (priority 2017, dated 2022).

Columns and labels:
[1] = target: T1, BRD4 (Homo sapiens (Human), UniProt O60885); settings: read-out: BRD4 IC50 (μM gmean)
[2] = target: T1, BRD4; assay: biochemical; settings: BRD4 IC50 (μM gmean)

SMILES | IC50 [1] | IC50 [2]
COC(=O)N1c2ccc3c(nc(C(C)Cc4ccccc4)n3C3CCCNCC3)c2CC[C@@H]1C (stereo partly shown) [Example 942] | 1 to 1000 µM | 
COC(=O)N1c2ccc3c(nc(C(O)Cc4ccccc4)n3C3CCCC(C(=O)O)C3)c2CC[C@@H]1C (stereo partly shown) [Example 822] | 1 to 1000 µM | 
COC(=O)N1c2ccc3c(nc(CCC4CCCCO4)n3C3CCCC(C(=O)O)C3)c2CC[C@@H]1C (stereo partly shown) [Example 864] | 1 to 1000 µM | 
COC(=O)N1c2ccc3c(nc(C(O)c4ccc5[nH]ncc5c4)n3C3CCCC(C(=O)O)C3)c2CC[C@@H]1C (stereo partly shown) [Example 612] | 0.1 to 1 µM | 
COC(=O)N1c2ccc3c(nc(C(C)Cn4cc(Cl)cn4)n3C3CCCNCC3)c2CC[C@@H]1C (stereo partly shown) [Example 842] | 1 to 1000 µM | 
COC(=O)N1c2ccc3c(nc(C(C)C(O)c4ccccc4)n3C3CCCC(C(=O)O)C3)c2CC[C@@H]1C (stereo partly shown) [Example 545] | 0.1 to 1 µM | 
COC(=O)N1c2ccc3c(nc(C(O)c4cc(Cl)c5c(c4)CCO5)n3C3CCCC(C(=O)O)C3)c2CC[C@@H]1C (stereo partly shown) [Example 461] | 0.1 to 1 µM | 
COC(=O)N1c2ccc3c(nc(CC(O)c4ccccc4)n3C3CCC(C(=O)O)CC3)c2CC[C@@H]1C (stereo partly shown) [Example 800] | 0.1 to 1 µM | 
COC(=O)N1c2ccc3c(nc(C(O)c4ccc(OC)c(Cl)c4)n3C3CCCC(C(=O)O)C3)c2CC[C@@H]1C (stereo partly shown) [Example 437] | 0.1 to 1 µM | 
COC(=O)N1c2ccc3c(nc(C(C)Cc4ccc(F)c(F)c4)n3C3CCNCC3)c2CC[C@@H]1C (stereo partly shown) [Example 931] | 1 to 1000 µM | 
COC(=O)N1c2ccc3c(nc(C(O)c4ccc(OC)cc4Cl)n3C3CCCC(C(=O)O)C3)c2CC[C@@H]1C (stereo partly shown) [Example 431] | 0.1 to 1 µM | 
COC(=O)N1c2ccc3c(nc(C(O)c4ccc5ocnc5c4)n3C3CCCC(C(=O)O)C3)c2CC[C@@H]1C (stereo partly shown) [Example 499] | 0.1 to 1 µM | 
COC(=O)N1c2ccc3c(nc(C(O)c4cccc(OC)c4)n3C3CCCC(C(=O)O)C3)c2CC[C@@H]1C (stereo partly shown) [Example 538] | 1 to 1000 µM | 
COC(=O)N1c2ccc3c(nc(C(O)Cc4ccccc4)n3C3CCC(C(=O)O)CC3)c2CC[C@@H]1C (stereo partly shown) [Example 817] | 0.1 to 1 µM | 
COC(=O)N1c2ccc3c(nc(C(C)Cn4ccc(Cl)n4)n3C3CCC(C(=O)O)CC3)c2CC[C@@H]1C (stereo partly shown) [Example 790] | 1 to 1000 µM | 
COC(=O)N1c2ccc3c(nc([C@H](C)Cn4cc(Cl)cn4)n3C3CCC4(CC3)CNC4)c2CC[C@@H]1C [Example 936] | 1 to 1000 µM | 
COC(=O)N1c2ccc3c(nc(Cc4ccccc4)n3[C@@H]3CC[C@@H](C(N)=O)OC3)c2CC[C@@H]1C [Example 73, methyl (S)-2-benzyl-3-((3R,6S)-6-carbamoyltetrahydro-2H-pyran-3-yl)-7-methyl-3,7,8,9-tetrahydro-6H-imidazo[4,5-f]quinoline-6-carboxylate] |  | 1 to 1000 µM
COC(=O)N1c2ccc3c(nc(CCC4CCCO4)n3C3CCCC(C(=O)O)C3)c2CC[C@@H]1C (stereo partly shown) [Example 705] |  | 0.1 to 1 µM
COC(=O)N1c2ccc3c(nc(Nc4ccc5cn[nH]c5c4)n3[C@@H]3CCC[C@@H](C(=O)O)C3)c2CC[C@@H]1C [Example 830] |  | 0.1 to 1 µM
COC(=O)N1c2ccc3c(nc(Cn4ccc5ccc(C#N)nc54)n3[C@@H]3CCC[C@@H](C(=O)O)C3)c2CC[C@@H]1C [Example 476] |  | 0.1 to 1 µM
COC(=O)N1c2ccc3c(nc(C(O)c4cc(F)ccc4C(F)F)n3C3CCCC(C(=O)O)C3)c2CC[C@@H]1C (stereo partly shown) [Example 444] |  | 0.1 to 1 µM

SMILES | IC50 [1] | IC50 [2]
COC(=O)N1c2ccc3c(nc(C(O)c4ccc(C)c(F)c4)n3C3CCCC(C(=O)O)C3)c2CC[C@@H]1C (stereo partly shown) [Example 414] |  | 0.1 to 1 µM
COC(=O)N1c2ccc3c(nc(Cn4ccc5nccnc54)n3[C@@H]3CCC[C@@H](C(=O)O)C3)c2CC[C@@H]1C [Example 579] |  | 0.1 to 1 µM
COC(=O)N1c2ccc3c(nc(N(C)c4ccccc4C)n3[C@H]3CC[C@H](C(=O)O)CC3)c2CC[C@@H]1C [Example 598] |  | 0.1 to 1 µM
COC(=O)N1c2ccc3c(nc(C(O)Cc4ccccc4)n3C3CCC(C(=O)O)CC3)c2CC[C@@H]1C (stereo partly shown) [Example 569] |  | 0.1 to 1 µM
COC(=O)N1c2ccc3c(nc(CC(O)c4ccccc4)n3C3CCCC(C(=O)O)C3)c2CC[C@@H]1C (stereo partly shown) [Example 548] |  | 0.1 to 1 µM
COC(=O)N1c2ccc3c(nc(C(O)c4ccc5[nH]ncc5c4)n3C3CCCC(C(=O)O)C3)c2CC[C@@H]1C (stereo partly shown) [Example 480] |  | 0.1 to 1 µM
COC(=O)N1c2ccc3c(nc(Nc4cc(C(C)(C)C)[nH]n4)n3[C@H]3CC[C@H](C(=O)O)CC3)c2CC[C@@H]1C [Example 796] |  | 0.1 to 1 µM
COC(=O)N1c2ccc3c(nc([C@H](O)c4ccc(Cl)cc4)n3[C@@H]3CCC[C@@H](C(=O)O)C3)c2CC[C@@H]1C [Example 413, (1R,3R)-3-[(7S)-2-[(R)-(4-chlorophenyl)(hydroxy)methyl]-6-(methoxycarbonyl)-7-methyl-3H,6H,7H,8H,9H-imidazo[4,5-f]quinolin-3-yl]cyclohexane-1-carboxylic Acid] |  | 0.1 to 1 µM
COC(=O)N1c2ccc3c(nc(Cn4ccccc4=O)n3[C@@H]3CCC[C@H](O)C3)c2CC[C@@H]1C [Example 68] |  | 0.1 to 1 µM
COC(=O)N1c2ccc3c(nc(C(C)Cc4ccc(F)c(F)c4)n3C3CCNCC3)c2CC[C@@H]1C (stereo partly shown) [Example 626] |  | 0.1 to 1 µM
COC(=O)N1c2ccc3c(nc(C4(Nc5ccccn5)CC4)n3[C@@H]3CCC[C@@H](C(=O)O)C3)c2CC[C@@H]1C [Example 422] |  | 0.1 to 1 µM
COC(=O)N1c2ccc3c(nc(CC(O)c4ccccc4)n3C3CCC(C(=O)O)CC3)c2CC[C@@H]1C (stereo partly shown) [Example 658] |  | 0.1 to 1 µM
COC(=O)N1c2ccc3c(nc(Cc4ccccc4)n3[C@@H]3CC[C@H](C(=O)O)C(C)(C)C3)c2CC[C@@H]1C [Example 49, (1S,4R)-4-[(7S)-2-benzyl-6-(methoxycarbonyl)-7-methyl-3H,6H,7H,8H,9H-imidazo[4,5-f]quinolin-3-yl]-2,2-dimethylcyclohexane-1-carboxylic Acid] |  | 1 to 1000 µM
COC(=O)N1c2ccc3c(nc(C(O)c4ccc5[nH]ccc5c4)n3C3CCCC(C(=O)O)C3)c2CC[C@@H]1C (stereo partly shown) [Example 606] |  | 0.01 to 0.1 µM
COC(=O)N1c2ccc3c(nc(CN4Cc5ccccc5CC4=O)n3[C@@H]3CCC[C@@H](C(=O)O)C3)c2CC[C@@H]1C [Example 684] |  | 0.1 to 1 µM
COC(=O)N1c2ccc3c(nc(C(C)Cn4cc(Cl)cn4)n3C3CCNC3)c2CC[C@@H]1C (stereo partly shown) [Example 520] |  | 0.1 to 1 µM
COC(=O)N1c2ccc3c(nc(Nc4cccc(OC)c4)n3[C@@H]3CCC[C@@H](C(=O)O)C3)c2CC[C@@H]1C [Example 719] |  | 0.1 to 1 µM
COC(=O)N1c2ccc3c(nc(N(C)S(=O)(=O)c4ccccc4)n3[C@@H]3CCC[C@@H](C(=O)O)C3)c2CC[C@@H]1C [Example 670] |  | 0.1 to 1 µM
COC(=O)N1c2ccc3c(nc(N(C)c4ccccc4)n3[C@H]3CC[C@H](C(=O)O)CC3)c2CC[C@@H]1C [Example 694] |  | 0.1 to 1 µM
COC(=O)N1c2ccc3c(nc(C(C)CN4CCCCC4=O)n3C3CCCC(C(=O)O)C3)c2CC[C@@H]1C (stereo partly shown) [Example 683] |  | 0.1 to 1 µM
COC(=O)N1c2ccc3c(nc(C(O)c4cccc5c4OCC5)n3C3CCCC(C(=O)O)C3)c2CC[C@@H]1C (stereo partly shown) [Example 440] |  | 0.1 to 1 µM

SMILES | IC50 [1] | IC50 [2]
COC(=O)N1c2ccc3c(nc(OCCc4ccccc4)n3[C@@H]3CCC[C@@H](C(=O)O)C3)c2CC[C@@H]1C [Example 873] |  | 0.1 to 1 µM
COC(=O)N1c2ccc3c(nc(C(C)(O)Cc4ccccc4)n3C3CCCC(C(=O)O)C3)c2CC[C@@H]1C (stereo partly shown) [Example 618] |  | 0.1 to 1 µM
COC(=O)N1c2ccc3c(nc(C(O)C4CCCCCC4)n3C3CCCC(C(=O)O)C3)c2CC[C@@H]1C (stereo partly shown) [Example 491] |  | 0.1 to 1 µM
COC(=O)N1c2ccc3c(nc(CCN4CCCCC4=O)n3[C@@H]3CCC[C@@H](C(=O)O)C3)c2CC[C@@H]1C [Example 890] |  | 0.1 to 1 µM
COC(=O)N1c2ccc3c(nc(C(O)c4ccc5c(c4)CCO5)n3C3CCCC(C(=O)O)C3)c2CC[C@@H]1C (stereo partly shown) [Example 419] |  | 0.1 to 1 µM
COC(=O)N1c2ccc3c(nc(C(C)Cn4cc(Cl)cn4)n3C3CC4(CCNC4)C3)c2CC[C@@H]1C (stereo partly shown) [Example 736] |  | 0.1 to 1 µM
COC(=O)N1c2ccc3c(nc(Nc4ccccc4Cl)n3[C@H]3CC[C@H](C(=O)O)CC3)c2CC[C@@H]1C [Example 839] |  | 0.1 to 1 µM
COC(=O)N1c2ccc3c(nc(C(O)c4c(OC)ccc(F)c4F)n3C3CCCC(C(=O)O)C3)c2CC[C@@H]1C (stereo partly shown) [Example 428] |  | 0.1 to 1 µM
COC(=O)N1c2ccc3c(nc(Nc4cccc(Cl)c4)n3[C@H]3CC[C@H](C(=O)O)CC3)c2CC[C@@H]1C [Example 815] |  | 0.1 to 1 µM
COC(=O)N1c2ccc3c(nc(CCC4CCC4)n3[C@@H]3CCC[C@@H](C(=O)O)C3)c2CC[C@@H]1C [Example 570] |  | 0.1 to 1 µM
COC(=O)N1c2ccc3c(nc(CCC4CCCCO4)n3C3CCCC(C(=O)O)C3)c2CC[C@@H]1C (stereo partly shown) [Example 667] |  | 0.1 to 1 µM
COC(=O)N1c2ccc3c(nc(C(C)Cc4cnccn4)n3C3CCC(C(=O)O)CC3)c2CC[C@@H]1C (stereo partly shown) [Example 552] |  | 0.1 to 1 µM
COC(=O)N1c2ccc3c(nc(C4(c5cncc(C6CC6)n5)CC4)n3[C@@H]3CCC[C@@H](C(=O)O)C3)c2CC[C@@H]1C [Example 530] |  | 0.1 to 1 µM
COC(=O)N1c2ccc3c(nc(Cc4ccccc4)n3[C@H]3CC[C@@H](C(=O)O)C(C)(C)C3)c2CC[C@@H]1C [Example 48, (1R,4S)-4-[(7S)-2-benzyl-6-(methoxycarbonyl)-7-methyl-3H,6H,7H,8H,9H-imidazo[4,5-f]quinolin-3-yl]-2,2-dimethylcyclohexane-1-carboxylic acid] |  | 1 to 1000 µM
COC(=O)N1c2ccc3c(nc(Cc4ccc(OC(C)C)c(F)c4)n3[C@H]3CC[C@H](C(=O)O)CC3)c2CC[C@@H]1C [Example 412] |  | 0.1 to 1 µM
COC(=O)N1c2ccc3c(nc(C(C)OC4CCCCC4)n3C3CCCC(C(=O)O)C3)c2CC[C@@H]1C (stereo partly shown) [Example 486] |  | 0.1 to 1 µM
COC(=O)N1c2ccc3c(nc(Nc4cc(C5CC5)nn4C)n3[C@H]3CC[C@H](C(=O)O)CC3)c2CC[C@@H]1C [Example 727] |  | 0.1 to 1 µM
COC(=O)N1c2ccc3c(nc(C4(Oc5cnccn5)CC4)n3[C@@H]3CCC[C@@H](C(=O)O)C3)c2CC[C@@H]1C [Example 604] |  | 0.1 to 1 µM
COC(=O)N1c2ccc3c(nc(OCCC4CCCC4)n3[C@H]3CC[C@H](C(=O)O)CC3)c2CC[C@@H]1C [Example 766] |  | 0.1 to 1 µM

Like-named read-outs stand apart in the source and are kept apart here.
